This data set deals with D2^high receptors in caudate nucleus (Homo sapiens, UniProt P14416). The note with it: PET.

Protein sequences, listed by entry. Tags and fused reporters are not part of them.
UniProt P14416, whole entry: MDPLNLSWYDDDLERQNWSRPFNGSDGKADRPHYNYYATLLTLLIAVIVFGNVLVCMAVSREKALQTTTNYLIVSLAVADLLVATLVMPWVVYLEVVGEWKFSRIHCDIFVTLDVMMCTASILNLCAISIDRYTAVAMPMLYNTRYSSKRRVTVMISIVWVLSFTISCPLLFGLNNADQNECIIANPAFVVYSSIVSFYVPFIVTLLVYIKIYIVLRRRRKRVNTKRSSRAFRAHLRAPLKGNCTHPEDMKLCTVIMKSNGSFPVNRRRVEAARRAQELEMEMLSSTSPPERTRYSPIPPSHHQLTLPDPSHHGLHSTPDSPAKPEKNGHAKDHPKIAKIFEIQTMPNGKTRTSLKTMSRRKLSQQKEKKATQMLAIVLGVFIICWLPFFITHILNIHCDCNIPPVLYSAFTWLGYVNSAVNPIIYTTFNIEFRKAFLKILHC

These results are taken from US20080181848A1 (priority 2004, published 2008).

For the substance “[^11C]-(+)-4-propyl-9-hydroxy-2,3,4a,5,6,10b-hexahydro-4H-naphth[1,2b][1,4]-oxazine HCl [[^11C](+)PHNO]”, where the note is “bolus plus infusion i.v.”, the “time of peak emission in the caudate nucleus after intravenous injection” value came to 10 min. Where the note is “i.v., of the order of”, the “peak emission in the caudate nucleus” value is recorded as ~0.2 % of the injected dose per kg.
